In this assay the target is recombinant hMAO-B (Homo sapiens, UniProt P27338). As to the kind of experiment: MAO-B inhibition assay.

Amino acid sequences for entries named in this document (tags omitted).
UniProt P27338, whole entry: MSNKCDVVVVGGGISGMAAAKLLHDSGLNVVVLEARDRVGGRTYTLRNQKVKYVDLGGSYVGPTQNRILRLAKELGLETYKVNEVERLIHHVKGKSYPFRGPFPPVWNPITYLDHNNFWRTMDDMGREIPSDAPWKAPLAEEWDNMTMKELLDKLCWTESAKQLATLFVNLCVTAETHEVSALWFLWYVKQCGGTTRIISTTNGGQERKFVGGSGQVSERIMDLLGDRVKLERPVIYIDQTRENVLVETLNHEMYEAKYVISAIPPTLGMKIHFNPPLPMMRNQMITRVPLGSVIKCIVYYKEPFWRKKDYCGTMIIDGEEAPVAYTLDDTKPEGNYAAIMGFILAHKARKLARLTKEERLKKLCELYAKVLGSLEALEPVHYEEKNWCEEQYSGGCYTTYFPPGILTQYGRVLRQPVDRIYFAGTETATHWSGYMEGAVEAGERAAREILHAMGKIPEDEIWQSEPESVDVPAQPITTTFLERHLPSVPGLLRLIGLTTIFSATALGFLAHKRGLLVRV

Take `C#CCN1CCN(CCCOc2ccc3c(ccn3S(=O)(=O)c3ccc(C(=O)NNCCC)cc3)c2)CC1` [FRB56]: the IC50 was found to be 150 nM.
